## Measured vapor pressure values of organic chemicals

Values as listed in the OPERA 2.9 repository of K. Mansouri.

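These are experimental values that the OPERA curators gathered from public databases to train and test their QSAR models. The files give a single number for a compound and property, which may rest on several reports. Method and conditions are not stated for these values. Where a salt, mixture or single isomer is drawn, the source does not say that exactly this form was tested. Some entries may be limits or estimates that an upstream database listed as plain numbers.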

Vapor pressure is log10 of mmHg; the set covers 15 to 30 °C, mostly 20 to 25 °C. Cells with "n/a" have no entry in this list. "via" names the databases from which the curators took the value.

compound,name,vapor pressure (log10 mmHg),via
CC(=O)O[Si](OC(C)=O)(OC(C)(C)C)OC(C)(C)C,n/a,-1.531,eChemPortal
CC(=O)C=CC1C(C)=CCC(C)C1(C)C (centres undefined),alpha-Irone,-2.523,eChemPortal
S=c1[nH]nc(SSc2n[nH]c(=S)s2)s1,"1,3,4-Thiadiazole-2(3H)-thione, 5,5'-dithiobis-",-6.512,eChemPortal
O=CN1CCOCC1,4-Morpholinecarboxaldehyde,-1.537,eChemPortal
O=S(=O)([O-])CCN(O)CCS(=O)(=O)[O-].[Na+].[Na+],n/a,-6.397,eChemPortal
COc1ccc(OC)c(Cl)c1,"2-Chloro-1,4-dimethoxybenzene",-3.612,eChemPortal
O=C(OCc1ccccc1)c1ccccc1O,Benzyl salicylate,-4.108,"PubChem, eChemPortal"
FC(F)(F)C(F)(F)C(F)(F)C(F)(F)C(F)(F)C(F)(F)CCSCCCCS,n/a,-2.591,eChemPortal
COC(F)(F)C(F)(F)C(F)(F)C(F)(F)C(F)(F)F,"1,1,1,2,2,3,3,4,4,5,5-Undecafluoro-5-methoxypentane",1.845,ICF
CC(C)Cc1ccc(CC(C)C=O)cc1 (centres undefined),3-(p-Cumenyl)-2-methylpropionaldehyde,-2.889,eChemPortal
CC(=O)CCC=C(C)C,6-Methyl-5-hepten-2-one,-0.099,eChemPortal
CC(CC(=O)Cl)CC(C)(C)C (centres undefined),"3,5,5-Trimethylhexanoyl chloride",-0.292,eChemPortal
CC(=O)CCC1=C(C)CCCC1(C)C,Dihydro-beta-ionone,-2.502,eChemPortal
CCOC(=O)OCCOc1cc(O)c2c(c1N)C(=O)c1ccccc1C2=O,n/a,-10.96,eChemPortal
C=CC(=O)OCCOC,2-Methoxyethyl acrylate,0.324,eChemPortal
N[C@@H]1CCc2c(c3ccccc3n2CCC(=O)O)C1,n/a,-8.383,eChemPortal
OCC(CO)OB(OC(CO)CO)OC(CO)CO,n/a,-3.472,eChemPortal
CCN(CC)c1ccc(N=Nc2ccc([N+](=O)[O-])cc2)cc1,"N,N-Diethyl-4-[(4-nitrophenyl)diazenyl]aniline",-10.1,OCHEM
COC(=O)C1CC(=O)C(C(=O)OC)CC1=O (centres undefined),Dimethyl succinylsuccinate,-5.709,eChemPortal
CCCC(=O)C(C)=O,"2,3-Hexanedione",-0.301,PubChem
CC(Br)CC(C)Br (centres undefined),"Pentane, 2,4-dibromo-",0.153,OCHEM
CCCCOCCOCC(=O)[O-].[Na+],"Acetic acid, (2-butoxyethoxy)-, sodium salt",-6.755,eChemPortal
CCN1CCCCC1,"Piperidine, 1-ethyl-",0.959,eChemPortal
Cc1ccc(C(C)(C)C)c(O)c1,2-Tert-Butyl-5-methylphenol,-1.648,eChemPortal
CCCOC(=O)C1CCCCC1C(=O)OCCC (centres undefined),"dipropyl cyclohexane-1,2-dicarboxylate",-2.824,eChemPortal
Cc1ccc2c(c1)[C@H](N)[C@@H](C)C2,"(1R,2S)-2,6-Dimethylindan-1-amine",-3.166,eChemPortal
CCCC1CC=C(C)C(=O)C1 (centres undefined),2-Methyl-5-propylcyclohex-2-en-1-one,-0.202,eChemPortal
C=CCOC(=O)[C@@H]1[C@@H](C)CCCC1(C)C,"(1R,6S)-Allyl 2,2,6-trimethylcyclohexanecarboxylate",-1.084,eChemPortal
CCC1(C)CC(=O)C(C)C(C)(CC)N1OC(C)c1ccccc1 (centres undefined),n/a,-4.727,eChemPortal
Cc1cc(-c2ccc(N=C=O)c(C)c2)ccc1N=C=O,"3,3'-Dimethyl-4,4'-diphenylene diisocyanate",-6.16,eChemPortal
O=C1OCCN1CCCO,"3-(3-Hydroxypropyl)-1,3-oxazolidin-2-one",-4.673,eChemPortal
Cn1cc(C(=O)O)c(C(F)F)n1,3-(Difluoromethyl)-1-methyl-1H-pyrazole-4-carboxylic acid,-6.88,eChemPortal
O=c1oc(=O)c2cc3c(=O)oc(=O)c3cc12,"1H,3H-Benzo(1,2-c:4,5-c')difuran-1,3,5,7-tetrone",-8.002,eChemPortal
CCCOCc1ccc(CC(C)C)cc1,4-(2-Methylpropyl)benzyl propyl ether,-1.935,eChemPortal
CC(C)CCCC(C)CC=O (centres undefined),"3,7-Dimethyloctanal",-0.879,eChemPortal
Cc1nc2c(O)cccn2c(=O)c1CCO,n/a,-6.298,eChemPortal
CCC(C)NCCO (centres undefined),2-[(1-Methylpropyl)amino]ethanol,-0.523,eChemPortal
CCCc1ccc(-c2ccc(-c3cc(F)c(C(F)(F)Oc4cc(F)c(F)c(F)c4)c(F)c3)c(F)c2)cc1,n/a,-9.84,eChemPortal
CC(C)CCCC(C)CCCC(C)CCCC(C)(O)C(O)CO (centres undefined),"3,7,11,15-Tetramethylhexadecane-1,2,3-triol",-5.712,eChemPortal
C=C[Si]1(C)O[Si](C)(C=C)O[Si](C)(C=C)O[Si](C)(C=C)O1 (centres undefined),"1,3,5,7-Tetramethyl-1,3,5,7-tetravinylcyclotetrasiloxane",-0.198,eChemPortal
CCCCCCCCCc1cc(C(C)(C)C)c(O)c(C(C)(C)C)c1,"Phenol, 2,6-bis(1,1-dimethylethyl)-4-nonyl-",-4.085,eChemPortal
O=Cc1ccccn1,2-Pyridinecarboxaldehyde,-0.183,eChemPortal
O=C1CCCCCCCCCOCCCCCO1,"1,7-Dioxacycloheptadecan-8-one",-3.921,eChemPortal
COc1cc(/N=N/c2cc(S(=O)(=O)[O-])c3cccc(S(=O)(=O)[O-])c3c2)c(C)cc1NC(=O)Nc1cc(C)c(/N=N/c2cc(S(=O)(=O)[O-])c3cccc(S(=O)(=O)[O-])c3c2)cc1OC.[Na+].[Na+].[Na+].[Na+],C.I. Direct Yellow 34,-9.545,eChemPortal
CCCCCCCCCCCCCCCCCCCCCC(=O)O,Docosanoic acid,-6.73,eChemPortal
CC1C(C)(C)C2=C(C3OCOCC3CC2)C1(C)C (centres undefined),n/a,-2.569,eChemPortal
COc1cc(C(F)(F)F)ccn1,"Pyridine, 2-methoxy-4-(trifluoromethyl)-",0.744,eChemPortal
CCCCC(CC)CN(CC(CC)CCCC)Cn1cncn1 (centres undefined),"1H-1,2,4-Triazole-1-methanamine, N,N-bis(2-ethylhexyl)-",-4.274,eChemPortal
OCC(CO)(CO)CO,Pentaerythritol,-7.097,PubChem
c1ccc(SCCSc2ccccc2)cc1,"1,2-Bis(phenylthio)ethane",-4.369,eChemPortal
CSCSC,"Methane, bis(methylthio)-",0.638,eChemPortal
C=C[C@@H](COC(C)=O)OC(C)=O,"But-1-ene-3,4-diyl diacetate",-0.782,eChemPortal
NCCCOCCOCCO,"Ethanol, 2-[2-(3-aminopropoxy)ethoxy]-",-3.618,eChemPortal